The record followed here is publication PMC7041276.

The target in this assay is histidine-tagged DNMT3A (UniProt Q9Y6K1).

“GST-labeled AGO4 (from UniProt Q9HCK5 1-861) (natural protein)” had a DNMT Magnetic Beads (DMB) assay, acellular: incorporation of radiolabeled methyl groups into synthetic miRNA-181a-5p by DNMT3A with or without AGO4 (300 nM), AdoMet 900 nM of 9 times.
